The assay relates to rP34O (recombinant protocatechuate 3,4-dioxygenase, BuP34O). Description: substrate consumption by absorbance at […] nm, Michaelis-Menten fit. To be noted: 50 mM PBS pH 7.2, 35 °C; 10-400 μM substrate.

Turning to `O=C(O)c1ccc(O)c(O)c1`, the Michaelis constant (Km) was found to be 101 µM.

As usually defined, the Km is the concentration of substrate that gives half-maximal velocity.

Values taken from article PMC8540567, “Degradation of 2,4,6-Trinitrotoluene (TNT): Involvement of Protocatechuate 3,4-Dioxygenase (P34O) in Buttiauxella sp. S19-1” (2021).
